Literature values in patent US9555061B2, “Synthesis and analysis of compounds capable of inducing differentiation of human mesenchymal stems cells into hepatocytes” (National University Corporation Torrori University, priority 2011, dated 2017).

Sequences of proteins named here, by UniProt entry; tags and fusion partners are left off.
UniProt P35222, whole entry: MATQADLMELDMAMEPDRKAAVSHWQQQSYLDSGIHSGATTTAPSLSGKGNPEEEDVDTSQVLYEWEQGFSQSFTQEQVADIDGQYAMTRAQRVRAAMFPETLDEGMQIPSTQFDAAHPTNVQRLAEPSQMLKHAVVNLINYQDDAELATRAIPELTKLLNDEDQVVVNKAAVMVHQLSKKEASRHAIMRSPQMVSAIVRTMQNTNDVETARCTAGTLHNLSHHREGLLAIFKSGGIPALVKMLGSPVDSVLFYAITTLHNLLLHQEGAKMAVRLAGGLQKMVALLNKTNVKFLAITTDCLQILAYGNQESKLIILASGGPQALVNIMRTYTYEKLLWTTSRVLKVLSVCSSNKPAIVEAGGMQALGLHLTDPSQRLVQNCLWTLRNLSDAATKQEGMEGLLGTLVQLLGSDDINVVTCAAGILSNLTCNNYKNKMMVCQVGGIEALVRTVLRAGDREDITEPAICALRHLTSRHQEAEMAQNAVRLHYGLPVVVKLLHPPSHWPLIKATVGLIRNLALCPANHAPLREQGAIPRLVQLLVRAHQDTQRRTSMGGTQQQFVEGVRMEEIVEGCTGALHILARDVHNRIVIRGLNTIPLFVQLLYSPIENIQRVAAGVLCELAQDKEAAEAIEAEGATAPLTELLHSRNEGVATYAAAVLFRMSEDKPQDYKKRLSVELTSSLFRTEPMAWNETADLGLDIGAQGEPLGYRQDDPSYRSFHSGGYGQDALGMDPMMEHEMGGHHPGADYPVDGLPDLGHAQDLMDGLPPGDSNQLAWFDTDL

Molecular target: interaction between β-catenin and TCF (Homo sapiens, UniProt P35222)
Details: reportedly; cited from earlier work

In the case of `Cc1ccc(C=NNC(=O)c2ccccc2Oc2ccccc2)o1` [PNU-74654, N-[(5-methyl-2-furyl)methylideneamino]-2-phenoxy-benzamide], the “inhibition of Wnt/β-catenin pathway by blocking the interaction between β-catenin and TCF” value is listed as “inhibits a Wnt/β-catenin pathway”.
